Data taken from patent US10022376B2 (Pfizer Inc., priority 2014, dated 2018).

By UniProt entry, the sequences of proteins in these tests, tags left out. Where a name states a change or a piece, a line headed by the entry shows the natural chain unless it says otherwise.
UniProt P23458: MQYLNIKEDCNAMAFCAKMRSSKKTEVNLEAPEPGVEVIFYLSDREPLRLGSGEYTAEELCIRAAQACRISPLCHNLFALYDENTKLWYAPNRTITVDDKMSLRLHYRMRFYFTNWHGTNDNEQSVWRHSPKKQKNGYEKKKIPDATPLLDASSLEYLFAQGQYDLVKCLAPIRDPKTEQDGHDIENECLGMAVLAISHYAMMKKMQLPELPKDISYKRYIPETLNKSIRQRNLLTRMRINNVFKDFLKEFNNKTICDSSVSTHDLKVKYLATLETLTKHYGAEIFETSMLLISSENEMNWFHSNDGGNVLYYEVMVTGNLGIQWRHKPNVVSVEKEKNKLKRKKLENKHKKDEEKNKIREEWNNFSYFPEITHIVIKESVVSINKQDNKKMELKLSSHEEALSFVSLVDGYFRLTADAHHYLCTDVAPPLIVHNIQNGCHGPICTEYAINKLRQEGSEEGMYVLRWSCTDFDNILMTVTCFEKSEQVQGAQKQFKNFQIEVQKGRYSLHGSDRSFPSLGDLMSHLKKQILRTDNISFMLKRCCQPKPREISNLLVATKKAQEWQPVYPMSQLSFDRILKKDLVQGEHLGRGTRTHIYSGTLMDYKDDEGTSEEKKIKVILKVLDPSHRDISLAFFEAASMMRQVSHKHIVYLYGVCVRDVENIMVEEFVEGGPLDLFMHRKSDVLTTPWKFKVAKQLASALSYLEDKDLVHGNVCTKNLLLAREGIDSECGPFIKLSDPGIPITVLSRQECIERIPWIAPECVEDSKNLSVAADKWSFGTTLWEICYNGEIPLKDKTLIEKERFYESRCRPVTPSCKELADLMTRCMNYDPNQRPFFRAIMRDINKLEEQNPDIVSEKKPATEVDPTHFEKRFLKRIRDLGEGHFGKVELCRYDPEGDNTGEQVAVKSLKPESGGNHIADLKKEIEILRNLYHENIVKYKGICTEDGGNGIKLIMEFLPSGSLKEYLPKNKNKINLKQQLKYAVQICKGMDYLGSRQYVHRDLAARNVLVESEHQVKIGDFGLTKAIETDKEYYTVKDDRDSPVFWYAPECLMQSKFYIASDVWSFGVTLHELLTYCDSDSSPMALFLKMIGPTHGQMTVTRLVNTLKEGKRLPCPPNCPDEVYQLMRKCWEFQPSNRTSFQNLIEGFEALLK

Target: JAK1 (Homo sapiens (Human), UniProt P23458)
Test: JAK Caliper Enzyme Assay at 1 mM ATP (JAK1)
Format: biochemical
Details: Caliper assay at 1 mM ATP

## CCc1cc(O)ccc1-c1cc2[nH]ncc2c(N2CCc3c(cccc3C(=O)NCc3ccccc3)C2)n1 [Example 117, N-benzyl-2-[6-(2-ethyl-4-hydroxyphenyl)-1H-pyrazolo[4,3-c]pyridin-4-yl]-1,2,3,4-tetrahydroisoquinoline-5-carboxamide formate]
  IC50: 7.2 nM

Counter-ions that a name gives are not always drawn.
